From patent US20230330242A1 (published 2023)

The chains behind the UniProt entries cited, without tags or fusion partners. Residues count along the entry.
UniProt Q01973, 30-403 limits assumed: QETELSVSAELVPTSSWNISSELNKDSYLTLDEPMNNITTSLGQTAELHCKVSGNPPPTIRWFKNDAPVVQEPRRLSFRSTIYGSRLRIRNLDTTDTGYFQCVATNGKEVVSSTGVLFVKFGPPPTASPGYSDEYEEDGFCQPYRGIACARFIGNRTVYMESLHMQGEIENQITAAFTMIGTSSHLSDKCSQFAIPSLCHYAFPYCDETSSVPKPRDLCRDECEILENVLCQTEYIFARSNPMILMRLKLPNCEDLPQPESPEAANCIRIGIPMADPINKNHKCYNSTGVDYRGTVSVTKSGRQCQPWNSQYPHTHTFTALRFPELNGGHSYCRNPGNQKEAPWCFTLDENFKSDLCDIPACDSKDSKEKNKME

Molecular target: T1, Hu/Cy/Rh ROR1-His (human/cyno/rhesus, UniProt Q01973, in part)
T1 construct: Purified His-tagged ROR1 protein; also called HUMAN/CYNO/RHESUS ROR-1; not shown: His tag
Test: SPR, purified protein

B1: ATX-P-890 (antibody, human IgG1, kappa, V domains shown)
VH: QVQLVQSGAEVKKPGASVKVSCKASGYTFTGYYMHWVRQAPGQGLEWMGWINPNSGGTNYAQKFQGRVTMTRDTSISTAYMELSRLRSDDTAVYYCVRDQVQLERFDSWGQGTLVTVSS
VL: [omitted - about 100 residues]
notes: Full length IgG (IgG1, kappa) expressed in HEK293; also called mAb C
- Kd: 8.4 nM
- koff: 0.00314 s⁻¹
- kon: 392000 M⁻¹ s⁻¹
